US8507464B2, “Phosphoramidate alkylator prodrugs” (Threshold Pharmaceuticals, Inc., priority 2005, dated 2013)

Tested on: HT29 xenograft
Test: HT-29 human colon carcinoma xenograft mouse model (Example 50)
Details: in vivo

O=c1[nH]cc(F)c(=O)[nH]1 [Compound 5FU, 5-fluoro-2,4(1H,3H)-pyrimidinedione, reference compound]
% Inhibition vs Group 4: 59.3%
